{
  "source": "patent US20230255884A1",
  "about": "“FINISHED FIBROUS SRUCTURES AND METHODS OF THEIR USE AND PREPARATION” (CLEXIO BIOSCIENCES LTD., priority 2019, published 2023)",
  "assay": "Example 15: % Add on from aqueous (70%) ethanol (30%) composition, 50° C.",
  "type": "physicochemical",
  "settings": "10% lidocaine, 10% PEG 400, 10% propylene glycol, 2% Polysorbate 80; 91.4% polyamide/8.6% elastane, 1 h",
  "data": [
    {"smiles": "CCN(CC)CC(=O)Nc1c(C)cccc1C", "note": "[Lidocaine, lidocaine]", "values": [
      {"measurement": "percentage Add on", "result": 56, "unit": "%"}
    ]}
  ]
}
